Measurements taken from patent publication US20250161357A1, “HUMAN T CELL RECEPTOR PAIRS REACTIVE WITH HLA-A*02:01 RESTRICTED HUMAN PROSTATIC ACID PHOSPHATASE (PAP) EPITOPES” (The Regents of the University of California, priority 2022, published 2025).
Substitutions are numbered along the chain they refer to. Numbers in names are those of the source.

Chains of the proteins cited; added tags and fusions are not shown. Lines headed by an entry give the natural chain unless they say otherwise; changes in a name come on top.
UniProt P15309: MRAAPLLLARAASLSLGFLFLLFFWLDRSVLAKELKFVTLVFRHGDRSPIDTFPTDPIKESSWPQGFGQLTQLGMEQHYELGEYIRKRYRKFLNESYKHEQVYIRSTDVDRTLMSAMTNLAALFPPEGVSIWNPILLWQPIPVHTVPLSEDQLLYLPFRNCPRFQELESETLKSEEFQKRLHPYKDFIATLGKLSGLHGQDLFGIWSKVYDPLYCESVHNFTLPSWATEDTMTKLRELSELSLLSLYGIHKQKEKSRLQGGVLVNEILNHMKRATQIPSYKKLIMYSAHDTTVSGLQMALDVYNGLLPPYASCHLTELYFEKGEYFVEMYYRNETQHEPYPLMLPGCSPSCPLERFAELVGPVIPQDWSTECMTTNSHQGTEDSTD

B1: PAP-TCR-156-38: mutant of PAP-TCR-156, bCDR2-N3H; targets … (protein)
TCR alpha: QKEVEQNSGPLSVPEGAIASLNCTYSDRGSQSFFWYRQYSGKSPELIMFIYSNGDKEDGRFTAQLNKASQYVSLLIRDSQPSDSATYLCAVNNARLMFGDGTQLVVKPN
TCR beta: DSGVTQTPKHLITATGQRVTLRCSPRSGDLSVYWYQQSLDQGLQFLIQYYHGEERAKGNILERFSAQQFPDLHSELNLSSLELGDSALYFCASSVAGSPEAFFGQGTRLTVVED
modifications: left off: a dimerising Fc or GST
B2: PAP-TCR-156-37: mutant of PAP-TCR-156, bCDR2-Y1H; targets … (protein)
TCR alpha: B1 TCR alpha
TCR beta: B1 TCR beta with Y49H, H51N
modifications: left off: a dimerising Fc or GST
B3: PAP-TCR-156-30: mutant of PAP-TCR-156, aCDR1-S6E; targets … (protein)
TCR alpha: B1 TCR alpha with S32E
TCR beta: B1 TCR beta with H51N
modifications: left off: a dimerising Fc or GST
B4: PAP-TCR-156-31: mutant of PAP-TCR-156, aCDR1-S6H; targets … (protein)
TCR alpha: B1 TCR alpha with S32H
TCR beta: B1 TCR beta with H51N
modifications: left off: a dimerising Fc or GST
B5: PAP-TCR-156-35: mutant of PAP-TCR-156, bCDR1-S1H; targets … (protein)
TCR alpha: B1 TCR alpha
TCR beta: B1 TCR beta with S27H, H51N
modifications: left off: a dimerising Fc or GST
B6: PAP-TCR-156-36: mutant of PAP-TCR-156, bCDR1-SIN (Beta CDR1 NGDLS); targets … (protein)
TCR alpha: B1 TCR alpha
TCR beta: B1 TCR beta with S27N, H51N
modifications: left off: a dimerising Fc or GST
B7: PAP-TCR-156-29: mutant of PAP-TCR-156, aCDR1-S4E; targets … (protein)
TCR alpha: B1 TCR alpha with S30E
TCR beta: B1 TCR beta with H51N
modifications: left off: a dimerising Fc or GST
B8: PAP-TCR-156-34: mutant of PAP-TCR-156, aCDR2-D6N; targets … (protein)
TCR alpha: B1 TCR alpha with D55N
TCR beta: B1 TCR beta with H51N
modifications: left off: a dimerising Fc or GST
B9: PAP-TCR-156-33: mutant of PAP-TCR-156, aCDR2-N4H; targets … (protein)
TCR alpha: B1 TCR alpha with N53H
TCR beta: B1 TCR beta with H51N
modifications: left off: a dimerising Fc or GST
B10: PAP-TCR-156-39: mutant of PAP-TCR-156, bCDR3-E10H; targets … (protein)
TCR alpha: B1 TCR alpha
TCR beta: B1 TCR beta with H51N, E100H
modifications: left off: a dimerising Fc or GST
B11: PAP-TCR-156-32: mutant of PAP-TCR-156, aCDR1-S6N; targets … (protein)
TCR alpha: B1 TCR alpha with S32N
TCR beta: B1 TCR beta with H51N
modifications: left off: a dimerising Fc or GST

biological target: PAP peptide (Homo sapiens, UniProt P15309); assay: PAP peptide titration assays of TCR156 variants (FIG. 7); format: cell-based

Function in PAP peptide titration assays relative to unmutated TCR156 (wt), enhanced functions:
B1
B2
B3
B4
B5
B6
B7
B8
B9
B10
B11
